{"sequences": {"note": "Protein sequences, listed by entry. Tags and fused reporters are not part of them.", "UniProt P30542, whole entry": "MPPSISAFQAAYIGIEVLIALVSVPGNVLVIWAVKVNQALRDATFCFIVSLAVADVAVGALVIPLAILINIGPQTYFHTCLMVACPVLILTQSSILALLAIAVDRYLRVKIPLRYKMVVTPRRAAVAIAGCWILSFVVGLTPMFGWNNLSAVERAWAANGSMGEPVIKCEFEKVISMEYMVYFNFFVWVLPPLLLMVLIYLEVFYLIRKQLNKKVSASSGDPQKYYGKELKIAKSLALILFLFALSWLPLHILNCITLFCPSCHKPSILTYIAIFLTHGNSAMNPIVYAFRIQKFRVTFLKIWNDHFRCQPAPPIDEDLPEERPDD", "UniProt P0DMS8, whole entry": "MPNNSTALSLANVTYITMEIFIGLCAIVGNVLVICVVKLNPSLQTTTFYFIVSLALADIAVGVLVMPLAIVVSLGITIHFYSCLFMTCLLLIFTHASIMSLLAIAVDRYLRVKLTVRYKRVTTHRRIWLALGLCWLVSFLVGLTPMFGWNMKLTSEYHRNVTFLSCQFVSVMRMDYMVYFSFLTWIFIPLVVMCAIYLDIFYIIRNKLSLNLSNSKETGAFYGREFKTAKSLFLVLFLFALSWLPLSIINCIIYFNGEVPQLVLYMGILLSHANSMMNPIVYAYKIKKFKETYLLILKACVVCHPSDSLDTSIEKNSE", "UniProt P25099, whole entry": "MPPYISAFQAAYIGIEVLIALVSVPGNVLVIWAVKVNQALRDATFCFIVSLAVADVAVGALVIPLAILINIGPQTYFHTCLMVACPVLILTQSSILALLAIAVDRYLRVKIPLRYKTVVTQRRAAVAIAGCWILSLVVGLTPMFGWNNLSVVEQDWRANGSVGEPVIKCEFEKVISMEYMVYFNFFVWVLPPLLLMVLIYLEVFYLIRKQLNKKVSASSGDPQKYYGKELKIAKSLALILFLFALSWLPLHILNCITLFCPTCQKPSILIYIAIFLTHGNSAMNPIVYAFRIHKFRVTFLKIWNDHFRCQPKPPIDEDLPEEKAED"}, "source": "paper PMC9293909", "about": "(Nature Communications, 2022)", "key": {"[1]": {"target": "hA1R:Gi2 (Homo sapiens, UniProt P30542)", "experiment": "cAMP inhibition in PTX-treated CHO-K1-hA1R cells with PTX-insensitive Gi2", "assay_type": "cell-based", "conditions": "inhibition of forskolin-stimulated cAMP"}, "[2]": {"target": "hA1R:Goa (Homo sapiens, UniProt P30542)", "experiment": "cAMP inhibition in PTX-treated CHO-K1-hA1R cells with PTX-insensitive Goa (incl. Schild analysis, bias)", "assay_type": "cell-based", "parameters": "host or cells: CHO-K1-hA1R (made in-house), PTX-treated", "conditions": "inhibition of forskolin-stimulated cAMP"}, "[3]": {"target": "T1, hA3R (Homo sapiens, UniProt P0DMS8)", "T1 construct": "expressed in transfected cells; host or cells: CHO-K1", "experiment": "cAMP inhibition at hA3R", "assay_type": "cell-based", "conditions": "range of response as percentage of response to 10 μM forskolin"}, "[4]": {"target": "T2, rA1R (Rattus norvegicus, UniProt P25099)", "T2 construct": "expressed in transfected cells; host or cells: CHO-K1 (transient, 48 h)", "experiment": "cAMP inhibition at rA1R (transiently transfected CHO-K1)", "assay_type": "cell-based", "conditions": "range of response as percentage of response to 10 μM forskolin"}, "[5]": {"target": "hA1R:Gob (Homo sapiens, UniProt P30542)", "experiment": "cAMP inhibition in PTX-treated CHO-K1-hA1R cells with PTX-insensitive Gob", "conditions": "inhibition of forskolin-stimulated cAMP"}, "[6]": {"target": "hA1R (Homo sapiens, UniProt P30542)", "experiment": "cAMP inhibition in CHO-K1-hA1R cells (forskolin co-stimulation)", "conditions": "range of response as percentage of response to 10 μM forskolin"}, "[7]": {"target": "T3, β-arrestin2 recruitment to hA3R (Homo sapiens, UniProt P0DMS8)", "T3 construct": "expressed in transfected cells; host or cells: HEK 293T (ATCC CRL-3216), transient", "experiment": "BRET β-arrestin2 recruitment to A3R, HEK 293T", "assay_type": "cell-based"}}}
{"smiles": "CCNC(=O)[C@H]1O[C@@H](n2cnc3c(N)ncnc32)[C@H](O)[C@@H]1O", "note": "[NECA, 5′-(N-Ethylcarboxamido) adenosine]", "values": [{"measurement": "Emax Gi2", "setting": "[1]", "result": -8.08, "unit": "%"}, {"measurement": "Emax Goa", "setting": "[2]", "result": -20.94, "unit": "%"}, {"measurement": "Range hA3R", "setting": "[3]", "result": "33.43 ± 3.1", "unit": "%"}, {"measurement": "Range rA1R", "setting": "[4]", "result": "37.17 ± 5.49", "unit": "%"}, {"measurement": "Emax Gob", "setting": "[5]", "result": -10.06, "unit": "%"}, {"measurement": "Range hA1R", "setting": "[6]", "result": "34.33 ± 4.0", "unit": "%"}, {"measurement": "β-arrestin2 recruitment by the A3R", "setting": "[7]", "result": "β-arrestin2 recruitment"}]}
